From patent US20070105789A1, “Combinatorial chemotherapy treatment using Na+/K+ ATPase inhibitors” (priority 2004, published 2007)

Legend:
[1] = Melville KI et al. 1966; cited from earlier work
[2] = single oral dose of 3.5 mg; cited from earlier work
[3] = system: HIF-1α; assay: HIF-1α Western blot in Hep3B cells; assay type: cell-based, human
[4] = biological target: T1, Na+/K+-ATPase (Canis lupus familiaris, UniProt P50997); assay: Na+/K+-ATPase inhibition; assay type: biochemical, dog
T1 construct: enzyme preparation from dog kidney (Sigma); purchased Sigma; host or cells: dog kidney tissue
Method: Anti-prolerafitive IC50 values were determined by MTS assay using an A549 cell line. Na^+/K^+-ATPase inhibition IC50 values were obtained using enzyme preparation from dog kidney (Sigma).

## C[C@@H]1OC(OC2C=C3CCC4C(CC[C@]5(C)[C@@H](c6ccc(=O)oc6)CC[C@]45O)[C@@]3(C)CC2)[C@H](O)[C@H](O)[C@H]1O (stereo partly shown) [BNC-4, proscillaridin]
[1]
  toxicity relative to Ouabain: about half
[2]
  time to optimal therapeutic plasma levels: 30 min
[3]
  potency relative to BNC-1 in inhibiting HIF-1α expression: about 10 times
[4]
  potency relative to BNC-151 in Na+/K+-ATPase inhibition: about 10 times
